# Patent US8741944B2, “Anti-infective agents against intracellular pathogens” (priority 2007, dated 2014)
# Like-named read-outs stand apart in the source and are kept apart here.
# Experiments:
# [1] = tested on: PC-3 (Prostate Cancer); test: NCI DTP tumor cell line screen (SRB), PC-3; details: PC-3, Log10 Concentration −4.0
# [2] = tested on: OVCAR-5 (Ovarian Cancer); test: NCI DTP tumor cell line screen (SRB), OVCAR-5; details: OVCAR-5, Log10 Concentration −7.0
# [3] = tested on: SN12C (Renal Cancer); test: NCI DTP tumor cell line screen (SRB), SN12C
# [4] = tested on: CAKI-1 (Renal Cancer); test: NCI DTP tumor cell line screen (SRB), CAKI-1; details: CAKI-1, Log10 Concentration −7.0
# [5] = tested on: OVCAR-8 (Ovarian Cancer); test: NCI DTP tumor cell line screen (SRB), OVCAR-8; details: OVCAR 8, Log10 Concentration −7.0
# [6] = tested on: M14 (Melanoma); test: NCI DTP tumor cell line screen (SRB), M14
# [7] = tested on: EKVX (Non-Small Cell Lung Cancer); test: NCI DTP tumor cell line screen (SRB), EKVX
# [8] = tested on: MDA-MB-435 (Breast Cancer); test: NCI DTP tumor cell line screen (SRB), MDA-MB-435
# [9] = tested on: DU-145 (Prostate Cancer); test: NCI DTP tumor cell line screen (SRB), DU-145; details: DU-145, Log10 Concentration −7.0
# [10] = tested on: K-562 (Leukemia); test: NCI DTP tumor cell line screen (SRB), K-562; details: K-562, Log10 Concentration −7.0
# [11] = tested on: COLO 205 (Colon Cancer); test: NCI DTP tumor cell line screen (SRB), COLO 205; details: COLO 205, Log10 Concentration −5.0
# [12] = tested on: HOP-92 (Non-Small Cell Lung Cancer); test: NCI DTP tumor cell line screen (SRB), HOP-92; details: HOP-92, Log10 Concentration −8.0
# [13] = tested on: HCT-15 (Colon Cancer); test: NCI DTP tumor cell line screen (SRB), HCT-15
# [14] = tested on: 786-0 (Renal Cancer); test: NCI DTP tumor cell line screen (SRB), 786-0
# [15] = tested on: HOP-62 (Non-Small Cell Lung Cancer); test: NCI DTP tumor cell line screen (SRB), HOP-62; details: HOP-62, Log10 Concentration −6.0
# [16] = tested on: MOLT-4 (Leukemia); test: NCI DTP tumor cell line screen (SRB), MOLT-4
# [17] = tested on: SK-MEL-28 (Melanoma); test: NCI DTP tumor cell line screen (SRB), SK-MEL-28
# [18] = tested on: SK-MEL-2 (Melanoma); test: NCI DTP tumor cell line screen (SRB), SK-MEL-2; details: SK-MEL-2, Log10 Concentration −6.0
# [19] = tested on: SK-MEL-5 (Melanoma); test: NCI DTP tumor cell line screen (SRB), SK-MEL-5; details: SK-MEL-5, Log10 Concentration −5.0
# [20] = tested on: KM12 (Colon Cancer); test: NCI DTP tumor cell line screen (SRB), KM12; details: KM12, Log10 Concentration −6.0
# [21] = tested on: OVCAR-3 (Ovarian Cancer); test: NCI DTP tumor cell line screen (SRB), OVCAR-3; details: OVCAR-3, Log10 Concentration −7.0
# [22] = tested on: UACC-62 (Melanoma); test: NCI DTP tumor cell line screen (SRB), UACC-62; details: UACC-62, Log10 Concentration −8.0
# [23] = tested on: RXF 393 (Renal Cancer); test: NCI DTP tumor cell line screen (SRB), RXF 393; details: RXF 383, Log10 Concentration −5.0
# [24] = tested on: HS 578T (Breast Cancer); test: NCI DTP tumor cell line screen (SRB), HS 578T; details: Log10 Concentration −8.0
# [25] = tested on: MCF7 (Breast Cancer); test: NCI DTP tumor cell line screen (SRB), MCF7
# [26] = tested on: SK-OV-3 (Ovarian Cancer); test: NCI DTP tumor cell line screen (SRB), SK-OV-3; details: SK-OV-3, Log10 Concentration −8.0
# [27] = tested on: NCI-H522 (Non-Small Cell Lung Cancer); details: NCI-H522, Log10 Concentration −7.0
# [28] = tested on: MALME-3M (Melanoma); test: NCI DTP tumor cell line screen (SRB), MALME-3M
# [29] = tested on: NCI/ADR-RES (Breast Cancer)
# [30] = tested on: UO-31 (Renal Cancer); test: NCI DTP tumor cell line screen (SRB), UO-31; details: UO-31, Log10 Concentration −6.0
# [31] = tested on: A549/ATCC (Non-Small Cell Lung Cancer); test: NCI DTP tumor cell line screen (SRB), A549/ATCC
# [32] = tested on: OVCAR-4 (Ovarian Cancer); test: NCI DTP tumor cell line screen (SRB), OVCAR-4; details: OVCAR-4, Log10 Concentration −8.0
# [33] = tested on: NCI-H23 (Non-Small Cell Lung Cancer)
# [34] = tested on: LOX IMVI (Melanoma); test: NCI DTP tumor cell line screen (SRB), LOX IMVI; details: Log10 Concentration −7.0
# [35] = tested on: HCT-116 (Colon Cancer); test: NCI DTP tumor cell line screen (SRB), HCT-116; details: HCT-116, Log10 Concentration −7.0
# [36] = tested on: ACHN (Renal Cancer); test: NCI DTP tumor cell line screen (SRB), ACHN; details: Log10 Concentration −7.0
# [37] = tested on: CCRF-CEM (Leukemia); test: NCI DTP tumor cell line screen (SRB), CCRF-CEM; details: Log10 Concentration −8.0
# [38] = tested on: BT-549 (Breast Cancer); test: NCI DTP tumor cell line screen (SRB), BT-549; details: Log10 Concentration −4.0
# [39] = tested on: HT29 (Colon Cancer); test: NCI DTP tumor cell line screen (SRB), HT29; details: Log10 Concentration −8.0
compound,measurement,setting,value
4-[5-(2-Phenanthrenyl)-3-(trifluoromethyl)-1H-pyrazol-1-yl]-phenyl -guanidine [Compound 71],Percent Growth,[1],−26%
same,Percent Growth,[2],86%
same,Percent Growth,[3]; Log10 Concentration −6.0,87%
same,Percent Growth,[3]; Log10 Concentration −8.0,88%
same,Percent Growth,[4],89%
same,Percent Growth,[5],96%
same,Percent Growth,"[6]; M14, Log10 Concentration −6.0",81%
same,Percent Growth,"[6]; M14, Log10 Concentration −8.0",74%
same,Percent Growth,[7]; Log10 Concentration −4.0,−74%
same,Percent Growth,[7]; Log10 Concentration −6.0,54%
same,Percent Growth,"[8]; MDA-MB-435, Log10 Concentration −7.0",89%
same,Percent Growth,"[8]; MDA-MB-435, Log10 Concentration −8.0",89%
same,Percent Growth,[9],87%
same,Percent Growth,[10],89%
same,Percent Growth,[11],−96%
same,Percent Growth,[12],86%
same,Percent Growth,"[13]; HCT-15, Log10 Concentration −6.0",84%
same,Percent Growth,"[13]; HCT-15, Log10 Concentration −7.0",81%
same,Percent Growth,"[14]; 786-0, Log10 Concentration −5.0",−93%
same,Percent Growth,"[14]; 786-0, Log10 Concentration −7.0",96%
same,Percent Growth,"[14]; 786-0, Log10 Concentration −8.0",96%
same,Percent Growth,[15],96%
same,Percent Growth,"[16]; MOLT-4, Log10 Concentration −4.0",−54%
same,Percent Growth,"[16]; MOLT-4, Log10 Concentration −5.0",−54%
same,Percent Growth,"[16]; MOLT-4, Log10 Concentration −8.0",81%
same,Percent Growth,"[17]; SK-MEL-28, Log10 Concentration −6.0",86%
same,Percent Growth,"[17]; SK-MEL-28, Log10 Concentration −8.0",93%
same,Percent Growth,[18],87%
same,Percent Growth,[19],−74%
same,Percent Growth,[20],87%
same,Percent Growth,[21],81%
same,Percent Growth,[22],81%
same,Percent Growth,[23],−61%
same,Percent Growth,[24],89%
same,Percent Growth,[25]; Log10 Concentration −5.0,−84%
same,Percent Growth,[25]; Log10 Concentration −8.0,93%
same,Percent Growth,[26],93%
same,Percent Growth,[27],87%
same,Percent Growth,[28]; Log10 Concentration −5.0,−87%
same,Percent Growth,[28]; Log10 Concentration −7.0,54%
same,Percent Growth,[29]; Log10 Concentration −5.0,−12%
same,Percent Growth,[29]; Log10 Concentration −7.0,96%
same,Percent Growth,[30],87%
same,Percent Growth,[31]; Log10 Concentration −6.0,93%
same,Percent Growth,[31]; Log10 Concentration −7.0,96%
same,Percent Growth,[31]; Log10 Concentration −8.0,96%
same,Percent Growth,[32],81%
same,Percent Growth,"[33]; NCI-H23, Log10 Concentration −7.0",87%
same,Percent Growth,"[33]; NCI-H23, Log10 Concentration −8.0",93%
same,Percent Growth,[34],84%
same,Percent Growth,[35],86%
same,Percent Growth,[36],81%
"NCC(=O)Nc1ccc(-n2nc(C(F)(F)F)cc2-c2ccc3c(ccc4ccccc43)c2)cc1 [Compound 70, 2-Amino-N-{4-[5-(2-phenanthrenyl)-3-(trifluoromethyl)-1H-pyrazol-1-yl]-phenyl}-acetamide]",Mean Optical Densities,[37],0.893
same,Mean Optical Densities,"[13]; HCT-15, Log10 Concentration −4.0",0.278
same,Mean Optical Densities,[38],0.195
same,Mean Optical Densities,[39],1.355
same,Mean Optical Densities,[28]; Log10 Concentration −8.0,1.123
